Source: PubChem BioAssay (National Center for Advancing Translational Sciences (NCATS))
Hits are enriched below; roughly 1% of the tested compounds scored in any of these assays.
miR-21 FLuc = raises the signal of a miR-21 reporter; HeLa miR-21 FLuc reporter, luciferase, 48 h; Potency, µM (highest dose often 38.3 µM), for inactives: at the highest dose reporter change, positive = more light; 340,000 tested, under 10 active; active = well fitted rising curve with a large enough effect; inconclusive = small, poorly fitted or top-dose-only effect; inactive = no such curve, though single readings can be large or run the other way;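 also: % of control where 0% means no effect; miR-21 action dims this reporter so a rising signal means less miR-21 action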
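Luminescence from a firefly luciferase reporter carrying a miR-21 binding site downstream, stably expressed under a CMV promoter in HeLa cells that make miR-21 endogenously, reports miRNA modulation after 48 h compound exposure up to approximately 40uM final.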
KinaseGlo FLuc = counter-screen: inhibitors of Kinase-Glo firefly luciferase. Kinase-Glo luciferase, ATP luminescence, 8 min. Potency, µM (highest dose often 38.3 µM), inactives show at the highest dose activity change, negative = inhibition, usual class: inhibitors. 0.28% of 200,000 active. AID 1379; further: potency means the concentration at half of the fitted maximal effect; on the % scale 0 is the no-effect control and ±100 the full control effect; nearly all actives have a fitted effect of over 60% in size
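Kinase-Glo luciferase light output from ATP and luciferin was measured with 10 uM ATP, within the enzyme's linear range. Buffer: 50 mM imidazole pH 7.2, 50 mM KCl, 7 mM MgCl2, 0.01% Tween 20, 0.05% BSA; luminescence read after 8 min at ambient temperature.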
RXFP1 agonist = activates the human relaxin receptor RXFP1 | Q9HBX9 | HEK293T-RXFP1 cAMP TR-FRET, 30 min; response scale: percent of porcine relaxin response, buffer zero | Potency, µM (highest dose often 57.5 µM), for inactives: at the highest dose activation, most hits filed as activators | 0.3% of 370,000 active | AID 2676; further: potency means the concentration at half of the fitted maximal effect; on the % scale 0 is the no-effect control and ±100 the full control effect; nearly all actives have a fitted effect of over 60% in size
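cAMP rise read by TR-FRET after 30 min, 37C compound exposure (up to 58 uM) in RXFP1-transfected HEK293 cells with Ro 20174 present. EC50 from Hill-equation fits, with 29 nM porcine relaxin as 100% and buffer as basal.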
gsp antagonist = antagonizes gsp, the McCune-Albright syndrome mutation; gsp-mutant cells, cAMP HTRF, 30 min; Potency, µM (top dose mostly 76.9 µM), without a hit: at the highest dose activity change, negative = inhibition, usual class: inhibitors; 0.4% of 340,000 active; AID 624288; calls by dose curve; cell line not stated here;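 further: intracellular cAMP measured with PDE inhibitor Ro 20-1724 present during compound exposure; potency means the concentration at half of the fitted maximal effect; on the % scale 0 is the no-effect control and ±100 the full control effect; nearly all actives have a fitted effect of over 65% in size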
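G418-selected cells were plated in DMEM/10% FBS for 16-24 h at 37C, then treated with compounds plus the PDE inhibitor […] (300 uM solution added) for 30 min at 37C. Intracellular cAMP was measured by HTRF after 30 min lysis at room temperature.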
gsp agonist = activates gsp, the McCune-Albright syndrome mutation; gsp mutant cells, cAMP HTRF, 30 min; Potency, µM (series often up to 76.9 µM), for inactives: top-dose activation (cAMP increase), hits mostly activators; 0.13% of 340,000 active; AID 624287; active means well fitted activation curve with a large enough effect; inconclusive means small, poorly fitted or top-dose-only effect, or another doubt; inactive means no such curve, though single readings can be large or run the other way; cell line not stated here;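 further: phosphodiesterase inhibitor Ro 20-1724 added with compounds to block cAMP breakdown; potency means the concentration at half of the fitted maximal effect; nearly all actives have a fitted effect of over 60% in size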
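Cells in DMEM/10% FBS with G418 were pretreated with compounds in DMSO plus […] (300 uM stock) for 30 min at 37C. cAMP was measured by HTRF (cAMP-d2 plus anti-cAMP antibody-K) after 30 min at room temperature.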
RXFP1 antagonist = antagonists of human relaxin receptor RXFP1; HEK293-RXFP1, relaxin-stimulated cAMP HTRF, 30 min; stronger effect = lower value; activity change, negative = inhibition, % at 57.5 µM; 0.59% of 350,000 active; AID 1259400;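 active means activity change of -60% or lower, but not beyond a set lower limit; inconclusive means change between -60% and -40%, or beyond the set limit; inactive means change above -40%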; further: on the % scale 0 is the no-effect control and ±100 the full control effect
* hit, by the source's call; ? = inconclusive; nt = not tested or not shown; ! = repeats disagree; [ ] = remark or other dose. Unless noted, the call rests on the fitted dose curve; in most records, active means well fitted curve in the direction sought with a large enough effect; inconclusive means small, poorly fitted or top-dose-only effect, or another doubt; inactive means no such curve, though single readings can be large; an effect the other way counts as inactive or inconclusive.

SMILES	miR-21 FLuc	KinaseGlo FLuc	RXFP1 agonist	gsp antagonist	gsp agonist	RXFP1 antagonist
Cc1occc1C(=O)Nc1cc(C(C)(C)C)on1	-53%	11µM*	0%	13%	-40%	5
CCn1c(C)nc2cc(C(=O)NNC(=O)c3ccc(C)cc3)ccc21	nt	nt	0%	-8%	7%	-1
CCn1c(C)nc2cc(C(=O)OC(C(F)(F)C(F)F)C(F)(F)C(F)F)ccc21	-17%	-3%	0%	22µM*	11%	-5
C=CC(=O)Nc1cc2c(Nc3ccc(F)c(Cl)c3)ncnc2cc1OCCCN1CCOCC1	nt	nt	nt	nt	nt	-10
CCOC(=O)C1=C(C)N(C)C(C)=C(C(=O)OCC)C1c1ccc(Cl)cc1	3%	0%	1%	5%	-3%[15.4 µM]	-61*
COC(=O)C1=C(C)N(C)C(C)=C(C(=O)OC)C1c1ccc(Cl)cc1	-2%	-3%	0%	-4%	12%	-16
Cc1ccccc1-c1nnn(Cc2cccc(S(=O)(=O)N3CCOCC3)c2)n1	nt	nt	1%	35µM*	3%	1
O=Cc1ccccc1C=O	nt	nt	nt	nt	nt	7
Cc1cccc(CCNC(=O)COc2cc(=O)n(C)c3ccccc23)c1	6%	0%	0%	32µM*	0%[15.4 µM]	-18
Cc1cc2oc(=O)c(CC(=O)NCCc3ccccc3F)c(C)c2c2occ(C(C)(C)C)c12	-2%	nt	0%	nt	nt	-6

Complete entries, quoted from the list. Screens in order: miR-21 FLuc, KinaseGlo FLuc, RXFP1 agonist, gsp antagonist, gsp agonist, RXFP1 antagonist
Profile of Cc1ccccc1-c1nnn(Cc2cccc(S(=O)(=O)N3CCOCC3)c2)n1 = nt, nt, 1%, 35µM*, 3%, 1
Profile of Cc1cc2oc(=O)c(CC(=O)NCCc3ccccc3F)c(C)c2c2occ(C(C)(C)C)c12 = -2%, nt, 0%, nt, nt, -6
Profile of C=CC(=O)Nc1cc2c(Nc3ccc(F)c(Cl)c3)ncnc2cc1OCCCN1CCOCC1 = nt, nt, nt, nt, nt, -10
Profile of CCOC(=O)C1=C(C)N(C)C(C)=C(C(=O)OCC)C1c1ccc(Cl)cc1 = 3%, 0%, 1%, 5%, -3%[15.4 µM], -61*
Profile of O=Cc1ccccc1C=O = nt, nt, nt, nt, nt, 7

Continued.
SMILES	miR-21 FLuc	KinaseGlo FLuc	RXFP1 agonist	gsp antagonist	gsp agonist	RXFP1 antagonist
Cn1c(/C=C/c2ccccc2)nc2ccccc21	17%	7.1µM*	6%	-10%	24%	-4
CC(=O)c1ccc(/C=C/c2nc3ccccc3n2C)o1	-23%	nt	25µM*	-2%	?	49
Cn1c(=O)c(/C=C/c2ccccc2)nc2ccccc21	-67%	-3%	2%	-17%	-9%	19
Fc1ccc2ncc3c(-c4ccccc4)n[nH]c3c2c1	-1%	nt	2%	nt	nt	-8
COc1ccccc1CCNC(=O)Cn1ccc2cc(S(=O)(=O)N3CCCCC3)ccc21	4%	nt	0%	nt	nt	0
COc1ccc2nc(Nc3ccccc3OC)sc2c1	-30%	11µM*	1%	-8%	16%[15.4 µM]	-24
CCCCC[C@]12Cc3cc(OC)c(OC)cc3[C@H](O1)c1c(cc(C)oc1=O)O2	-1%[7.66 µM]	nt	0%[11.5 µM]	nt	nt	nt
CCOC(=O)c1cc(-c2ccc(OC)cc2)nn1-c1ccc(C(=O)O)cc1	-25%	2%	-4%	35µM*	-3%	-8
Cc1ccccc1NC(=O)c1sc2nc3n(c(=O)c2c1C)CCC3	3%	nt	-4%	nt	nt	-16
COc1ccccc1NC(=O)c1sc2nc3n(c(=O)c2c1C)CCC3	-3%	nt	8.9µM*	-2%	?	16
Cc1ccc(OCc2nc(-c3ccccn3)no2)c(Br)c1	12%	10µM*	5%	0%	?	-8
CCc1ccc(OCc2nc(-c3ccccn3)no2)c(Br)c1	-8%	-17%	0%	-20%	-45%	-7
C[C@H]1NCc2cc(-c3ccc4c(=O)c(C(=O)O)cn(C5CC5)c4c3OC(F)F)ccc21	nt	nt	nt	nt	nt	9
Cc1cc2ccc3ccccc3c2cc1CN(C)C	-58%	nt	0%	7%	-5%[15.4 µM]	-107*
CCOC(=O)C1=C(CC)Nc2ccccc2N=C1NC(=O)Nc1ccc(Cl)c(Cl)c1	?	-3%	1%	32µM*	-7%	-14
N#Cc1ccsc1NC(=O)C1CCN(S(=O)(=O)c2cccs2)CC1	nt	nt	0%	-8%	11%[15.4 µM]	-70*
O=C(Nc1ccccc1)C1CCN(S(=O)(=O)c2cccs2)CC1	nt	nt	1%	8%	42%	-2
O=[N+]([O-])c1cc(/C=N\Nc2nc(-c3ccccc3)cs2)ccc1O	-18%	-5%	3%	?	-50%	-65*
COc1cc(/C=N/Nc2nc(-c3ccc(S(=O)(=O)N(C)C)cc3)cs2)ccc1O	28%	nt	1%	32µM*	-12%	-7
O=S(=O)(Nc1cccc(-c2ccc(N3CCCCCC3)nn2)c1)c1ccc(C(F)(F)F)cc1	-48%	nt	1%	?	0%	-68*
O=S(=O)(Nc1cccc(-c2ccc(N3CCCCCC3)nn2)c1)c1ccc(F)cc1	-64%	nt	2%	?	?	-76*!
O=S(=O)(Nc1cccc(-c2ccc(N3CCCCCC3)nn2)c1)c1ccccc1Cl	-31%	nt	0%	28µM*	?	-21
O=S(=O)(Nc1ccc(-c2ccc(N3CCOCC3)nn2)cc1)c1ccc(Cl)c(Cl)c1	nt	nt	-3%	35µM*	19%[15.4 µM]	-12
CCCCCCCCCCCCOCCO	nt	nt	nt	nt	nt	-8
CCCOC(C(=O)OC1CCN(C)CC1)(c1ccccc1)c1ccccc1	nt	nt	nt	nt	nt	-15
Cc1nc2ccc([N+](=O)[O-])cc2c(=O)n1Cc1cccc(F)c1	-3%	nt	23%	10%	14µM*	-9
COc1ccc(C(=O)N2CCN(c3nc4c(C)c(Cl)ccc4s3)CC2)c(OC)c1	0%	nt	0%	nt	nt	nt
CN(C)S(=O)(=O)c1cccc(NC(=S)N/N=C/c2cc(Br)ccc2O)c1	11%	nt	2%	50µM*	-4%[15.4 µM]	-84*
COc1cccc(/C=N/NC(=O)c2cc(-c3ccc(C)cc3)n[nH]2)c1O	nt	-9%	nt	nt	nt	nt
CCOc1ccc(NC(=O)c2cnn(-c3ccc(C)c(C)c3)c2C2CCN(C(=O)OC(C)(C)C)CC2)cc1	-1%	nt	2%	nt	nt	-10
N#CC(=C=[N-])C1=C(C#N)C(c2ccccc2F)C([n+]2ccccc2)C(O)(C2CC2)N1 (stereo not drawn)	-5%	-5%	25µM*	7%	18%	33
Cc1cccc[n+]1C1C(c2ccccc2)C(C#N)=C(C(=C=[N-])C#N)NC1(O)C1CC1 (stereo not drawn)	0%	-1%	15%	18%	?	21
O=C1c2ccccc2C(=O)N1CCOc1ccccc1Br	-57%	nt	0%	-5%	3.5µM*	-5
CC1=NN(C(N)=S)C(=O)C1N=Nc1c(Br)cc(Br)cc1Br (stereo not drawn)	-19%	nt	-3%	-10%	9%	-64*
CCc1ccc(S(=O)(=O)c2nnn3c2nc(NC2CCCCCC2)c2sccc23)cc1	-13%	nt	23%	nt	nt	-6
Nc1cccc(-c2nc3ccc(C(=O)c4ccccc4)cc3[nH]2)c1	-2%	nt	-3%	-9%	4%	3
COc1ccc2nc(-c3cccc(N)c3)[nH]c2c1	-10%	13µM*	1%	2%	-2%	-10
COc1ccc2nc(-c3ccc(N)cc3)[nH]c2c1	20%	10µM*	-3%	-29%	1%	-5
O=C(NCc1ccc(F)cc1)c1cc(-c2ccncc2)nc2ccccc12	15%	nt	-1%	-19%	1%[15.4 µM]	-12
O=C(NCc1cc([N+](=O)[O-])ccc1O)c1cc(-c2ccncc2)nc2ccccc12	0%	nt	1%	40µM*	?	?
